Values of other authors as cited in patent US20240165135A1, “COMPOSITIONS AND METHODS FOR THE TREATMENT OF CANCER” (The State of Israel, Ministry of Agriculture & Rural …, priority 2021, published 2024).

By UniProt entry, the sequences of proteins in these tests, tags left out.
UniProt P34972, whole entry: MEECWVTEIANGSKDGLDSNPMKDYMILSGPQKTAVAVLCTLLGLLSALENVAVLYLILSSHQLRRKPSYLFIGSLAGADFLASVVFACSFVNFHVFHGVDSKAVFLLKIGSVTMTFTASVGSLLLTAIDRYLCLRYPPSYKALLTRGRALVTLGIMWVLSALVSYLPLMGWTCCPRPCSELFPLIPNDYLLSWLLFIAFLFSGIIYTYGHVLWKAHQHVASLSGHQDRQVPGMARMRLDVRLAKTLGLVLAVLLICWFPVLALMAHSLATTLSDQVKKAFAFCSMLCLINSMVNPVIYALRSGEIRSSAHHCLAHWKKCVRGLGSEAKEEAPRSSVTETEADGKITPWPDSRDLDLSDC

Molecular target: CB2 receptor (Homo sapiens, UniProt P34972)
Conditions: from reference [46]; read-out: EC50 as IA of the CB2 receptor; cited from earlier work

Cc1c(C(=O)NN2CCCCC2)nn(-c2ccc(Cl)cc2Cl)c1-c1ccc(I)cc1 [AM251]
EC50: 650 ± 30 nM
